These results are taken from article PMC6662154 (ACS Central Science, 2019).

The term Kd denotes a measure of binding affinity in units of concentration. Read a high Kd as a looser complex.

For the assay, the target named is T1, PscG (Pseudomonas aeruginosa, UniProt P95435 1-115).
T1 sequence (looked up): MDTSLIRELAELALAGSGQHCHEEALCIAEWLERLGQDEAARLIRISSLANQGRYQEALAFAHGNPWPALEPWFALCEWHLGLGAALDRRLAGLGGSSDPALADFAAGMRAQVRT
As to the kind of experiment: ITC. In general terms: ITC needs no label: the signal is the heat of the interaction.

B1: PscE (natural protein, Pseudomonas aeruginosa, UniProt Q9I317 1-67, looked up)
chain: MMTALETRLSVADGTHAAALRQRLQAALAECRRELARGACPEHFQFLQQQARALEGGLGILSQLTED
As for B1, the dissociation constant Kd was found to be 1170 nM.
